Patent US9612240B2, “Biomimetic chemical sensors using nanoelectronic readout of olfactory receptors” (The Trustees Of The University Of Pennsylvania, priority 2010, dated 2017)
Only a part of the results on these compounds is given; other tests are left out.

Assays:
mOR203-1 = test: Vapor response of mOR-functionalized carbon nanotube transistor; conditions: mOR203-1 in digitonin micelles, single sensor, FIG. 4
[1] = system: mouse olfactory receptor proteins (mORs); test: Vapor response of mOR-functionalized NT devices, mOR not specified; type: binding; conditions: mOR not given

Cc1ccc([N+](=O)[O-])cc1[N+](=O)[O-]
change in conductance (mOR203-1): negative changes in conductance
lowest concentration producing a response [1]: 7 ppb
